Several values for one entry are separate records, joined by “and”; a condition that tells them apart may be missing. Equal values may be shown once. This is a selection; strong and weak results do not stand in their true shares. Activity calls are given as the source filed them. Cut-off read from the data, not from the text of the source: active = normalized growth mostly below about 0.91 (no sharp cut-off); inconclusive = no clear call, values can overlap the other calls; inactive = mostly above about 0.92.
Assay: chemical genetic growth profiling, strain panel (AID 1159580);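 note: tested at 20 µM; growth read once vehicle control cultures reached saturation at 30 °C; 1 = growth at the plate median or of vehicle wells; lower values mean less growth of the strain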
Conditions: S. cerevisiae deletion strains, growth OD

Measured: normalized growth

CN(CCCl)CCCl
active: locus YAL013W, strain DEP1, hits give low values 0.0634 | locus YAL021C, strain ccr4, hits give low values 0.0688 | locus YAL026C, strain drs2, hits give low values 0.0642 | locus YAL030W, strain snc1, hits give low values 0.0569 | locus YBL061C, strain skt5, hits give low values 0.0632 | locus YBR009C, strain hhf1, hits give low values 0.071 | locus YBR021W, strain FUR4, hits give low values 0.0913 | locus YBR023C, strain chs3, hits give low values 0.0648 | locus YBR171W, strain sec66, hits give low values 0.0801 | locus YBR229C, strain ROT2, hits give low values 0.0483 | locus YBR231C, strain swc5, hits give low values 0.0652 | locus YBR279W, strain paf1, hits give low values 0.0611 | locus YCL011C, strain gbp2, hits give low values 0.058 | locus YCL016C, strain dcc1, hits give low values 0.0675 | locus YCL029C, strain bik1, hits give low values 0.061 | locus YCL061C, strain MRC1, hits give low values 0.0653 | locus YCL069W, strain vba3, hits give low values 0.0611 | locus YCR088W, strain abp1, hits give low values 0.0608 | locus YDL005C, strain med2, hits give low values 0.0784 | locus YDL035C, strain GPR1, hits give low values 0.0518 | locus YDL040C, strain nat1, hits give low values 0.0595 | locus YDL074C, strain BRE1, hits give low values 0.091 | locus YDL101C, strain DUN1, hits give low values 0.0606 | locus YDL134C, strain PPH21, hits give low values 0.0489 | locus YDL185W, strain tfp1, hits give low values 0.0579 | locus YDL192W, strain arf1, hits give low values 0.0612 | locus YDR001C, strain nth1, hits give low values 0.0604 | locus YDR069C, strain doa4, hits give low values 0.0631 | locus YDR101C, strain arx1, hits give low values 0.0586 | locus YDR137W, strain rgp1, hits give low values 0.093 | locus YDR150W, strain NUM1, hits give low values 0.0602 | locus YDR159W, strain sac3, hits give low values 0.0912 | locus YDR162C, strain NBP2, hits give low values 0.0563 | locus YDR195W, strain ref2 = 0.123 | locus YDR297W, strain sur2, hits give low values 0.0575 | locus YDR318W, strain mcm21, hits give low values 0.0653 | locus YDR334W, strain swr1, hits give low values 0.0665 | locus YDR335W, strain msn5, hits give low values 0.0626 | locus YDR388W, hits give low values 0.0576 | locus YDR392W, strain spt3, hits give low values 0.1 | locus YDR502C, strain sam2, hits give low values 0.0595 | locus YEL003W, strain gim4, hits give low values 0.0563 | locus YEL037C, strain rad23, hits give low values 0.0581 | locus YEL061C, strain CIN8 (second series), hits give low values 0.0619 | locus YEL061C, strain CIN8, hits give low values 0.056 | locus YER015W, strain faa2, hits give low values 0.06 | locus YER016W, strain bim1, hits give low values 0.0627 | locus YER110C, hits give low values 0.0773 | locus YER111C, strain swi4, hits give low values 0.0745 | locus YER155C, strain BEM2 (second series), hits give low values 0.0908 | locus YER155C, strain BEM2, hits give low values 0.0652 | locus YER167W, strain BCK2, hits give low values 0.0556 | locus YFR010W, strain ubp6, hits give low values 0.0707 | locus YGL078C, strain dbp3, hits give low values 0.0601 | locus YGL086W, strain mad1, hits give low values 0.0572 | locus YGL167C, strain pmr1, hits give low values 0.0811 | locus YGL173C, strain kem1, hits give low values 0.0707 | locus YGL227W, strain vid30, hits give low values 0.0632 | locus YGL240W, strain doc1, hits give low values 0.0772 | locus YGL248W, strain PDE1, hits give low values 0.049 | locus YGL253W, strain hxk2, hits give low values 0.0541 | locus YGR078C, strain PAC10, hits give low values 0.0534 | locus YGR135W, strain pre9, hits give low values 0.0626 | locus YGR229C, strain SMI1, hits give low values 0.0628 | locus YGR252W, strain gcn5, hits give low values 0.145 | locus YHR013C, strain ard1, hits give low values 0.109 | locus YHR027C, strain rpn1, hits give low values 0.0638 | locus YHR030C, strain SLT2, hits give low values 0.0494 and 0.122 | locus YHR079C, strain IRE1 (second series), hits give low values 0.0584 | locus YHR079C, strain IRE1, hits give low values 0.119 | locus YHR094C, strain hxt1, hits give low values 0.0591 | locus YHR129C, strain ARP1, hits give low values 0.0584 | locus YHR142W, strain chs7, hits give low values 0.0769 | locus YHR200W, strain rpn10, hits give low values 0.0619 | locus YIL066C, strain RNR3, hits give low values 0.0529 | locus YIL073C, strain SPO22, hits give low values 0.118 | locus YIL125W, strain kgd1, hits give low values 0.0654 | locus YIR030C, strain dcg1, hits give low values 0.0586 | locus YJL092W, strain hpr5, hits give low values 0.0602 | locus YJL095W, strain BCK1 (second series), hits give low values 0.0586 | locus YJL095W, strain BCK1, hits give low values 0.0596 and 0.109 | locus YJL115W, strain asf1, hits give low values 0.0741 | locus YJL129C, strain trk1, hits give low values 0.0888 | locus YJL134W, strain LCB3, hits give low values 0.0492 | locus YJL154C, strain vps35, hits give low values 0.0634 | locus YJL164C, strain tpk1, hits give low values 0.0682 | locus YJL166W, strain qcr8, hits give low values 0.0604 | locus YJL168C, strain set2, hits give low values 0.0601 | locus YJL187C, strain SWE1 (second series), hits give low values 0.0521 | locus YJL187C, strain SWE1, hits give low values 0.059 | locus YJR043C, strain POL32, hits give low values 0.0861

Source: PubChem BioAssay AID1159580 (chemical genetic matrix, 2015)
